This data set is described as follows: Solubility of AKG salts.

Turning to `O=C([O-])CCC(=O)C(=O)[O-].[Ca+2]` [Ca−AKG, calcium alpha-ketoglutarate], the solubility worked out at 2 g per 100 ml.

For the compound `O=C([O-])CCC(=O)C(=O)[O-].[Na+].[Na+]` [Na−AKG, sodium alpha-ketoglutarate], the “solubility relative to Ca−AKG” value stood at 50 times higher.

These data come from patent US20110039935A1, “USE OF PHARMACOLOGICALLY ACTIVE CHEMICAL COMPOUNDS” (ENTRESS AB, priority 2007, published 2011).
